This assay relates to mice fed a Gubra amylin NASH (GAN) diet. The experiment in a line: Biological effects in GAN diet-induced NASH mice. To be noted: after two weeks. Type of assay: in vivo. How it is done: NASH was induced in mice by feeding mice a Gubra amylin NASH (GAN) diet as described in Boland et al. World J Gastroenterol. 2019, 25(33): 4904-4920. One week prior to administration of a first dose of compounds, the mice were weighed and randomized, and their food intake was measured. Mice were randomly assigned to dosing groups, with twelve mice per group. […] Compound dose titration (nmol/kg): 0.6 (day 0), 1.2 (day 1), 2.4 (day 2), 4.8 (day 3), 4.8 (day 4), 12 (day 5), 30.0 (from day 6).
After two weeks, animals were sacrificed. Plasma enzymes (P-ALT (alanine aminotransferase) and P-AST (aspartate aminotransferase)), total plasma triglycerides, and total plasma cholesterol were measured, and terminal necropsy of each liver was carried out, determining relative liver weight as a percentage of body weight, assaying total liver biochemistry including total liver triglycerides, plasma insulin and total liver cholesterol, as well as histological evaluation of Galectin-3, and alpha-smooth muscle actin.

As for tirzepatide, the “Gal-3 Relative” value (liver Galectin-3, histological quantitative assessment) was 6.7 ± 0.5 percent fractional area. For the same substance, the “α-SMA Relative” value (liver alpha-smooth muscle actin, histological quantitative assessment) is 5.3 ± 0.8 percent fractional area. Further, the “TG Relative” value (liver triglycerides) is recorded as 42 ± 6 mg per/g liver.
